Assay results published in ChEMBL document CHEMBL4038317, “Discovery of a Benzamide Derivative That Protects Pancreatic β-Cells against Endoplasmic Reticulum Stress” (J Med Chem, 2017).

System: INS1
Assay: Cytoprotective activity in rat INS-1 cells assessed as protection against tunicamycin-induced ER stress-mediated reduction in cell viability after 3 days by CellTiter-Glo assay
Format: functional, cell-based

Compound: O=C(NCc1ccc(C(F)(F)F)cc1)c1cccc(CN2CCCCC2)c1
- Activity: Dose-dependent effect
